{
  "source": "patent US6960590B2",
  "about": "“Orally active salts with tyrosine kinase activity” (Merck & Co. Inc., priority 2000, dated 2005)",
  "test": "Solubility of salts of 4-9 prepared in situ (pH and concentration by HPLC)",
  "assay_type": "physicochemical",
  "settings": "free base plus 1.05 mole equivalents of acid, suspended in 100 μL of water, rotated overnight, centrifuged",
  "procedure": "Two forms of the mesylate salt were made: Salt 4-9A above and Salt 4-9B below. Numerous salts of 4-9 were prepared in situ and analyzed using the procedure outlined below, • 1) 1.25×10^−5 moles of free base were placed in a centrifuge tube. • 2) The free base was then reacted with 1.05 mole equivalents of acid. • 3) The reagents were mixed with a Vortex mixer and left to stand at room temperature or warmed if needed to dissolve the solid. • 4) 100 μL of water were added to suspend the solid. • 5) Tube was then covered with aluminum foil and spun overnight on a rotator. • 6) The tube was then spun in a centrifuge for 10 minutes at 10,000 RPM. • 7) An aliquot was removed from the sample and dried with nitrogen overnight to produce the solid residue (salt) which was analyzed via microscopy and DCS. • 8) The liquid residue from the remaining sample was used to measure pH and determine the concentration of salt by HPLC.",
  "note": "Where a name gives a salt, the structure may show the parent alone.",
  "data": [
    {"molecule": "COCCN(C)CCOc1ccc2[nH]c(-c3cc4ccccc4[nH]c3=O)cc2c1", "note": "[Tartrate salt of 4-9, 3-(5-{2-[(2-methoxyethyl)(methyl)amino]ethoxy}-1H-indol-2-yl)-2(1H)-quinolinone]", "values": [
      {"measurement": "Solubility", "value": 25.3, "unit": "mg/mL"}
    ]}
  ]
}
